# From PubChem BioAssay AID999 (SRMLSC, 2007)
# Only a part is listed here, and it is no random draw. Active and inactive are the calls of the source.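 The calls were made as follows: active = viability at or below 21.59%, 3 SD under the median of tested compounds; inactive = the rest.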
# Test: growth suppression of PTEN-null HCT116 cells, cell-based, validation, diverse DP compound set (AID 999);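 also: 100% = median luminescence of untreated cell control wells and 0% = no signal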
# Details: CellTiter-Glo, 60 h, at 10 µM, hits give low values
smiles,measurement,value
CN(C(=O)Cc1ccc(Cl)c(Cl)c1)[C@H]1CCCC[C@@H]1N1CCCC1,viability,inactive: 92.7%
